# logP (octanol/water) values, as collected for the OPERA models

Values as listed in the OPERA 2.9 repository of K. Mansouri.

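These are experimental values that the OPERA curators gathered from public databases to train and test their QSAR models. A listed value is a point estimate from one report or more. Method and conditions are not stated for these values. Where a salt, mixture or single isomer is drawn, the source does not say that exactly this form was tested. Some upstream entries may be estimates or bounds without being marked so.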

logP is the log10 of the octanol-water partition coefficient; higher is more lipophilic.
"via" names the databases from which the curators took the value.

compound | logP | via
O=C1NC(=O)C(=c2[nH]c(=C3C(=O)NC(=O)NC3=O)c3ccccc23)C(=O)N1 | 0.31 | eChemPortal
CN(C)C(=O)Oc1ccc[n+](C)c1 | 1.554 | PubChem
Oc1c(Cl)c(Cl)c(O)c(Cl)c1Cl | 3.61 | OCHEM
COc1ccc2c3c1OC1C(=O)CCC4(O)C(C2)N(C)CCC314.Cl (stereo not drawn) | -0.15 | OCHEM
CC(=O)O.Cc1nc(N)cc2[nH]c3ccccc3c12 | 1.97 | OCHEM
CCCC(C)(COC(N)=O)COC(=O)NC(C)C (stereo not drawn) | 2.1 | PubChem
COc1ccc(CC(C)=O)cc1 | 1.9 | eChemPortal
C=CF | 1.19 | OFMPub
ClCOCCl | 1.045 | PubChem
C1CCC(NC2CCCCC2)CC1 | 3.5 | PubChem
N#CSCSC#N | 0.34 | OCHEM, eChemPortal
CCC(C)(C)OOC1(OOC(C)(C)CC)CCCCC1 | 6.85 | eChemPortal
CCCCC(CC)COC(=O)CCCCC(=O)OCC(CC)CCCC (stereo not drawn) | 8.94 | eChemPortal
FC(F)(Br)Br | 1.99 | PubChem
O=C1NC(=O)C(=NO)C(=O)N1 | -1.2 | eChemPortal
O=[N+]([O-])c1ccc(/N=N/c2cc(/N=N/c3cc(S(=O)(=O)[O-])cc4cc(S(=O)(=O)[O-])c(/N=N/c5cc([N+](=O)[O-])cc([N+](=O)[O-])c5O)c(O)c34)c(O)cc2O)cc1.[Na+].[Na+] | -1.189 | eChemPortal
CC1NCCOC1c1ccccc1 (stereo not drawn) | 1.7 | PubChem
CC(C)CC(N(C)C)C1(c2ccc(Cl)cc2)CCC1 (stereo not drawn) | 5.2 | PubChem
C=CC(=O)NCO | -1.81 | PubChem
Cc1ccc(C[N+](C)(C)C)o1.[I-] | -1.85 | OCHEM
COC1CC(OC2CCC3(CO)C4CCC5(C)C6(C=CC(=O)OC6)CCC5(O)C4CCC3(O)C2)OC(C)C1O (stereo not drawn) | 0.56 | OCHEM
c1cnc2c(c1)ccc1ncccc12 | 2.51 | OCHEM
C#CC1(OC(N)=O)CCCCC1 | 1.2 | PubChem
C[C@H]1O[C@@H](O[C@H]2[C@@H](O)C[C@H](O[C@H]3CC[C@@]4(C)[C@H](CC[C@@H]5[C@@H]4C[C@@H](O)[C@]4(C)[C@@H](C6=CC(=O)OC6)CC[C@]54O)C3)O[C@@H]2C)C[C@H](O)[C@@H]1O | 1.2 | OCHEM
CC(=O)OC1CC2(O)C3CCC4CC(O)CCC4(C)C3CCC2(C)C1C1=CC(=O)OC1 (stereo not drawn) | 1.93 | OCHEM
CC(=O)O[C@]1(C(C)=O)CC[C@H]2[C@@H]3CCC4=CC(=O)CC[C@@H]4[C@H]3CC[C@@]21C | 2.64 | eChemPortal
Br.CC(Cc1ccc(O)cc1)NCC(=O)c1cc(O)cc(O)c1 (stereo not drawn) | 0.5 | eChemPortal
CC(N)C(O)c1ccc(O)c(O)c1 (stereo not drawn) | -1.43 | OCHEM
CN(CC(=O)[O-])C(=N)NP(=O)([O-])O.[Na+].[Na+] | -1.17 | eChemPortal
C[C@@H]1O[C@@H](O[C@H]2CC[C@@]3(C)[C@H](CC[C@@H]4[C@@H]3CC[C@]3(C)[C@@H](C5=CC(=O)OC5)CC[C@]43O)C2)[C@H](O)[C@H](O)[C@H]1O | 2.1 | OCHEM
CC(C)C[C@H](CN)CC(=O)O | 1.3 | PubChem
Cc1cccc(C)c1Cc1cnc[nH]1 | 2.72 | OCHEM
CCOCCOC(C)=O | 0.24 | PubChem
CC1OC(OC2CCC3(CO)C4CCC5(C)C6(C=CC(=O)OC6)CCC5(O)C4CCC3(O)C2)CC(O)C1O (stereo not drawn) | 0.15 | OCHEM
C[N+](C)(C)Cc1ccco1.[I-] | -2.4 | OCHEM
CCCCOP(=O)(O)OCCCC | 0.57 | eChemPortal
NC1=Nc2ccc(Cl)cc2C(c2ccccc2)=[N+]([O-])C1 | 2.13 | OCHEM
CNCCCCc1cccnc1 | 0.91 | OCHEM
C=CC(=O)OCCN(C)C | 0.68 | OCHEM, OFMPub, eChemPortal
CC(C)OC(=O)NP(N)(N)=O | 0.5 | eChemPortal
C=C(C(F)(F)F)C(F)(F)F | 2.46 | eChemPortal
CN1CCC2CC1Cc1ccccc12.Cl (stereo not drawn) | -1.65 | OCHEM
Clc1cc(Cl)c2c(c1)Oc1cc(Cl)c(Cl)cc1O2 | 7.1 | OCHEM

Excerpt, the opening 6 entries:

compound | logP | via
O=C1NC(=O)C(=c2[nH]c(=C3C(=O)NC(=O)NC3=O)c3ccccc23)C(=O)N1 | 0.31 | eChemPortal
CN(C)C(=O)Oc1ccc[n+](C)c1 | 1.554 | PubChem
Oc1c(Cl)c(Cl)c(O)c(Cl)c1Cl | 3.61 | OCHEM
COc1ccc2c3c1OC1C(=O)CCC4(O)C(C2)N(C)CCC314.Cl (stereo not drawn) | -0.15 | OCHEM
CC(=O)O.Cc1nc(N)cc2[nH]c3ccccc3c12 | 1.97 | OCHEM
CCCC(C)(COC(N)=O)COC(=O)NC(C)C (stereo not drawn) | 2.1 | PubChem